Reference: paper PMC3578425 (Pharmacological research : the official journal of the …, 2010)

Protein sequences, listed by entry. Tags and fused reporters are not part of them. Lines headed by an entry give the natural chain unless they say otherwise; changes in a name come on top.
UniProt P47900: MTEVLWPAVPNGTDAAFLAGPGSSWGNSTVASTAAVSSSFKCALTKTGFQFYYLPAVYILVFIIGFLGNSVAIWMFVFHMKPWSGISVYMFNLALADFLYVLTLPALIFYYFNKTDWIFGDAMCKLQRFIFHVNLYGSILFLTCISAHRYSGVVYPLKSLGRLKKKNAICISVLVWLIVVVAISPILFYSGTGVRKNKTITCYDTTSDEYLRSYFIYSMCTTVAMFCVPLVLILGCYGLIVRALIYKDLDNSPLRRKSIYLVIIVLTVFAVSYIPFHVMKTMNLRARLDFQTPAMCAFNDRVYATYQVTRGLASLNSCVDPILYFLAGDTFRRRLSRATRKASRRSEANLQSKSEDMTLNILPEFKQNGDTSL

Key:
human P2Y1 receptor = human P2Y1 receptor (Homo sapiens, UniProt P47900); format: binding
[1] = molecular target: P2Y1 receptors on human platelets (Homo sapiens, UniProt P47900); test: [125I]MRS2500 binding assay with intact washed human platelets

Ki (human P2Y1 receptor): 70 ± 30 nM
Ki [1]: 46.5 ± 1.7 nM
Compound: CSc1nc(N)c2ncn([C@@H]3O[C@H](COP(=O)(O)OP(=O)(O)O)[C@@H](O)[C@H]3O)c2n1 [2MeSADP, 2-methylthio-adenosine 5′-diphosphate, reference compound]
